From patent US8834920B2, “Liposome composition for targeting egfr receptor” (Alza Corporation, priority 2006, dated 2014)

System: A431 cells
Test: FACS of P190-MMB constructs or cetuximab on A431 cells
Type: cell-based, human
Source text: In contrast, 190-MMB as the 4316 construct, binds EGFR and the presence of excess EGF promotes its binding.

Substance: cetuximab: neutralizing anti-EGFR monoclonal antibody [reference compound]
- binding to A431: binds
